Test results from PubChem BioAssay (Tox21).
This is a selection; strong and weak results do not stand in their true shares. Records with an inconclusive call do not appear. Calls of active or inactive are those of the source. Unless noted, calls follow the shape of the dose curve; as a rule, active = well fitted curve in the direction sought with a large enough effect in the repeat runs; inconclusive = weak or mixed curves; inactive = no such curve, though single readings can be large; an effect the other way counts as inactive or inconclusive.

Sequences of proteins named here, by UniProt entry; tags and fusion partners are left off. A change or cut given only in a name is not applied to a line headed by its entry.
UniProt P04150: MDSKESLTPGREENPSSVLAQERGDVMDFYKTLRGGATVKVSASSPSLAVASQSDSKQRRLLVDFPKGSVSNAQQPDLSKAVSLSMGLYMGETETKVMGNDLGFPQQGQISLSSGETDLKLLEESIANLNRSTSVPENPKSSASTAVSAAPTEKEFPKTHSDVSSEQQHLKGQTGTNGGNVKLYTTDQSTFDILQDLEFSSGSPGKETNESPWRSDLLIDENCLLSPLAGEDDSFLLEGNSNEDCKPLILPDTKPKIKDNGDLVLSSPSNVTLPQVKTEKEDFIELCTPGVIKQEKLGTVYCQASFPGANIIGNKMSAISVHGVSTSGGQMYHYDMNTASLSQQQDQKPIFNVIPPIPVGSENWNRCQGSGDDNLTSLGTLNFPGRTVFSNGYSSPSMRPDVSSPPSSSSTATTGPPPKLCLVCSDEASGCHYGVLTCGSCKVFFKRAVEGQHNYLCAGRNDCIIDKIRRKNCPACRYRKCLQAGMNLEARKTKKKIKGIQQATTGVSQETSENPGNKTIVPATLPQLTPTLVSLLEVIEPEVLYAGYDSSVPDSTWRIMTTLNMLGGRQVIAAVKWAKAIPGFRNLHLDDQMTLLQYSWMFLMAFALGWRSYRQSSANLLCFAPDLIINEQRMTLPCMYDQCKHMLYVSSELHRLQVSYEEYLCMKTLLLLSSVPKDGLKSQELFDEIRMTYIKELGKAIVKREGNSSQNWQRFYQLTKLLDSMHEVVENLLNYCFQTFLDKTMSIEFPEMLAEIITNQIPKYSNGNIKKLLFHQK
UniProt P03372, whole entry, looked up: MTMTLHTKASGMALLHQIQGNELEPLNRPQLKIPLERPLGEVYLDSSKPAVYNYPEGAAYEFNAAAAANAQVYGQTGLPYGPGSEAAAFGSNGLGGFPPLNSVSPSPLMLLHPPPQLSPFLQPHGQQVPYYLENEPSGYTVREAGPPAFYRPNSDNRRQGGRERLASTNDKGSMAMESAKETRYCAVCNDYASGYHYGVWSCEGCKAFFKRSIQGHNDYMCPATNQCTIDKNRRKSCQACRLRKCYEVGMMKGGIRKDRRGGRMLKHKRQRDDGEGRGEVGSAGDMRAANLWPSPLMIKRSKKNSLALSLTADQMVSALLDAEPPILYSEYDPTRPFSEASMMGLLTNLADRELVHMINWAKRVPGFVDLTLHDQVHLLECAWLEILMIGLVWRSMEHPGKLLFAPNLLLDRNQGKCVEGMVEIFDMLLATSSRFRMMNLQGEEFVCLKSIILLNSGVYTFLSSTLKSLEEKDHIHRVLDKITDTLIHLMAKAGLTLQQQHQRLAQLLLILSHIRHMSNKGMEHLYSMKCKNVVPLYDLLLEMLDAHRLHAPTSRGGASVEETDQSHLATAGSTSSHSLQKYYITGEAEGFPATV

Legend:
[1] = qHTS assay to test for compound auto fluorescence at 590 nm (red) in HEK293 cell free culture (AID 720683); conditions: cell-free medium autofluorescence, Ex540/Em590 red; at 91.3 µM (top of the series) unless noted
Procedure, shortened: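 Cell-free wells of DMEM with 10% FBS received compound, and intrinsic fluorescence was read at excitation/emission 540/590 nm. Values expressed as equivalence to Rose Bengal sodium.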

[2] = qHTS assay to test for compound auto fluorescence at 590 nm (red) in HepG2 cell free culture (AID 720684); conditions: cell-free medium autofluorescence, red 540/590 nm; at 91.3 µM (top of the series) unless noted
[3] = qHTS assay to test for compound auto fluorescence at 460 nm (blue) in HepG2 cell free culture (AID 720685); conditions: Cell-free culture medium, blue autofluorescence 405/460 nm; at 91.3 µM (top of the series) unless noted
Procedure, shortened: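 Compound (23 nL) or DMSO pinned into cell-free MEM with 10% FBS; blue fluorescence read at 405/460 nm excitation/emission, expressed as auto-fluorescence equivalency to triamterene.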

[4] = qHTS assay to test for compound auto fluorescence at 535 nm (green) in HepG2 cell free culture (AID 720686); conditions: Cell-free medium, green autofluorescence 485/535 nm; at 91.3 µM (top of the series) unless noted
[5] = qHTS assay to test for compound auto fluorescence at 460 nm (blue) in HepG2 cells (AID 720687); conditions: autofluorescence 405/460 nm, 1 h; at 91.3 µM (top of the series) unless noted
Procedure, shortened: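 HepG2 cells in MEM with 10% FBS, attached overnight at 37 C, were exposed to compound or DMSO for 1 hr at 37 C, 5% CO2. Blue fluorescence was read at 405/460 nm, with triamterene as reference fluorophore.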

[6] = biological target: Glucocorticoid receptor (Homo sapiens) (UniProt P04150); experiment: qHTS assay to identify small molecule agonists of the glucocorticoid receptor (GR) signaling pathway (AID 720691; active = well fitted activation curve with a large enough effect in the signal ratio in the repeat runs, not every such curve was filed as active; the % refers to the signal ratio); conditions: GR-bla HeLa, beta-lactamase reporter ratio, 18 h; at 62.4 µM (top of the series) unless noted
[7] = biological target: Glucocorticoid receptor (Homo sapiens) (UniProt P04150); experiment: qHTS assay to identify small molecule antagonists of the glucocorticoid receptor (GR) signaling pathway (AID 720692; active = well fitted inhibition curve with a large enough effect in the signal ratio in the repeat runs, not every such curve was filed as active; the % refers to the signal ratio); conditions: GR-bla HeLa, beta-lactamase FRET ratio, dexamethasone-stimulated, 18 h; at 58.5 µM (top of the series) unless noted
[8] = test system: thyroid hormone receptor (rat, GH3 cells); experiment: qHTS assay to identify small molecule agonists of the thyroid receptor (TR) signaling pathway (AID 743066; calls by dose curve); conditions: GH3.TRE-Luc cells, TR agonist luciferase, 24 h; at 83.9 µM (top of the series) unless noted
[9] = qHTS assay to identify small molecule antagonists of the estrogen receptor alpha (ER-alpha) signaling pathway - cell viability counter screen (AID 743074; calls by dose curve;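 also: HEK293 cells carrying ER-alpha-UAS-bla reporter stimulated with 17beta-estradiol; nearly all actives have a fitted effect of over 45% in size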)
[10] = biological target: Estrogen receptor (Homo sapiens) (UniProt P03372); experiment: qHTS assay to identify small molecule agonists of the estrogen receptor alpha (ER-alpha) signaling pathway (AID 743075; calls by dose curve;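 also: HEK293 GripTite cells with ER-alpha and UAS-driven beta-lactamase reporter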)
[11] = biological target: Estrogen receptor (Homo sapiens) (UniProt P03372); experiment: qHTS assay to identify small molecule agonists of the estrogen receptor alpha (ER-alpha) signaling pathway using the BG1 cell line (AID 743079); also: nearly all actives have a fitted effect of over 20% in size
[12] = qHTS assay to identify small molecule antagonists of the estrogen receptor alpha (ER-alpha) signaling pathway using the BG1 cell line (AID 743080; calls by dose curve;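 also: BG1 cells stimulated with 17beta-estradiol alongside compound; nearly all actives have a fitted effect of over 25% in size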); conditions: BG1Luc4E2 ERE-luciferase antagonist mode, luminescence; at 70.3 µM (top of the series) unless noted
Procedure, shortened: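 Endogenous full-length ER-alpha in BG1-Luc-4E2 cells drives a stably integrated 4×ERE luciferase gene; compounds were tested against 17beta-estradiol over 21.5 h, with luminescence and multiplexed viability fluorescence recorded.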

[13] = qHTS assay to identify small molecule antagonists of the estrogen receptor alpha (ER-alpha) signaling pathway using the BG1 cell line - cell viability counter screen (AID 743081);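 also: compound given together with 17beta-estradiol as the ER stimulus; nearly all actives have a fitted effect of over 45% in size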
[14] = qHTS assay for identifying genotoxic compounds that show differential cytotoxicity against isogenic chicken DT40 cell lines with known DNA damage response pathways - Rad54/Ku70 mutant cell line (AID 743015); also: nearly all actives have a fitted effect of over 60% in size; also: potency is read from the fitted curve at half-maximal effect
[15] = qHTS assay to identify small molecule antagonists of the thyroid receptor (TR) signaling pathway (AID 743065); also: nearly all actives have a fitted effect of over 55% in size
Procedure, shortened: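 GH3.TRE-Luc rat pituitary cells (two TREs driving luciferase) were dosed with compound, then stimulated with 1 nM T3 (final) for 23.5 h at 37 C. ONE-Glo luminescence was the read-out, with CellTiter-Fluor fluorescence as the cytotoxicity counter-screen.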

[16] = biological target: Estrogen receptor (Homo sapiens) (UniProt P03372); experiment: qHTS assay to identify small molecule antagonists of the estrogen receptor alpha (ER-alpha) signaling pathway (AID 743069; active = well fitted curve in the direction sought with a large enough effect in the signal ratio in the repeat runs, not every such curve was filed as active; the % refers to the signal ratio)
Procedure, shortened: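 Reporter cells (ER-alpha-bla, HEK293 background) are conditioned overnight in stripped-serum medium (2% charcoal-stripped FBS). Compound and 17beta-estradiol exposure runs 18 hr at 37C, 5% CO2.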
% is scaled to controls: 0 for no effect and ±100 for the full control effect.

In the case of `CC(C)CCCCCCCOP(OCCCCCCCC(C)C)Oc1ccccc1`, the fluorescence, % of fluorescent control [1] was inactive: -0.158%, the fluorescence, % of Rose Bengal [2] was inactive: -0.0683% and the fluorescence, % of fluorescent control [3] was inactive: -0.166%. For the same compound, the fluorescence, % of fluorescein control [4] was inactive: 0.0803%, the fluorescence, % of fluorescent control [5] was inactive: -0.0951% and the activation [6] was inactive: -1.35%. For the same compound, the activity change, negative = inhibition [7] was inactive: -20.2%, the activation [8] was inactive: -1.7% and the Potency [9] was “inactive”. For the same compound, the Potency [10] was “inactive”, the Potency [11] was “inactive” and the activity change, negative = inhibition [12] was inactive: 21.8%. The Potency [13] was “inactive”.
For `O=[p+]1oc2ccccc2c2ccccc21` (centres undefined), the fluorescence, % of fluorescent control [1] was inactive: -0.215%, the fluorescence, % of Rose Bengal [2] was inactive: -0.0388% and the fluorescence, % of fluorescent control [3] was inactive: -0.137%. For the same compound, the fluorescence, % of fluorescein control [4] was inactive: -0.0017%, the fluorescence, % of fluorescent control [5] was inactive: -0.0945% and the activation [6] was inactive: -2.18%. The activity change, negative = inhibition [7] was inactive: -6.61%, the Potency [14] was “inactive” and the Potency [15] was “inactive”. The activation [8] was inactive: 0.75%, the Potency [16] was “inactive” and the Potency [9] was “inactive”. For the same compound, the Potency [10] was “inactive”, the Potency [11] was “inactive” and the activity change, negative = inhibition [12] was inactive: 7.96%. For the same compound, the Potency [13] was “inactive”.
With `COC(=O)Cl` the fluorescence, % of fluorescent control [1] was inactive: 0.323%, the fluorescence, % of Rose Bengal [2] was inactive: 0.057% and the fluorescence, % of fluorescent control [3] was inactive: 0.0564%. The fluorescence, % of fluorescein control [4] was inactive: 0.0153%, the fluorescence, % of fluorescent control [5] was inactive: 0.0145% and the activation [6] was inactive: -0.134%. For the same compound, the activity change, negative = inhibition [7] was inactive: 0.0112%, the Potency [14] was “inactive” and the Potency [15] was “inactive”. The activation [8] was inactive: 0.0509%, the Potency [16] was “inactive” and the Potency [9] was “inactive”. For the same compound, the Potency [10] was “inactive”, the Potency [11] was “inactive” and the activity change, negative = inhibition [12] was inactive: 4.86%. The Potency [13] was “inactive”.
With `CC(C)OP(=S)(OC(C)C)SCCNS(=O)(=O)c1ccccc1` the fluorescence, % of fluorescent control [1] was inactive: 0.177%, the fluorescence, % of Rose Bengal [2] was inactive: 0.0527% and the fluorescence, % of fluorescent control [3] was inactive: 0.0898%. For the same compound, the fluorescence, % of fluorescein control [4] was inactive: 0.17%, the fluorescence, % of fluorescent control [5] was inactive: -0.135% and the activation [6] was inactive: 0.0041%. For the same compound, the Potency [14] was active: 13.7 µM, the Potency [9] was “inactive” and the Potency [13] was “inactive”.
With `CCNC(C)Cc1ccc2c(c1)OCO2` (centres undefined) the fluorescence, % of fluorescent control [1] was inactive: 0.425% [at 95.7 µM], the fluorescence, % of Rose Bengal [2] was inactive: 0.0116% [at 95.7 µM] and the fluorescence, % of fluorescent control [3] was inactive: -0.0151% [at 95.7 µM]. For the same compound, the fluorescence, % of fluorescein control [4] was inactive: 0.0009% [at 95.7 µM], the fluorescence, % of fluorescent control [5] was inactive: -0.0013% [at 95.7 µM] and the activation [6] was inactive: 5.91% [at 79.2 µM]. For the same compound, the activity change, negative = inhibition [7] was inactive: -3.8% [at 78.9 µM], the Potency [14] was active: 18.5 µM and the activation [8] was inactive: -1.95% [at 95.2 µM]. The Potency [16] was “inactive”, the Potency [9] was “inactive” and the Potency [10] was “inactive”. The Potency [11] was “inactive” and the activity change, negative = inhibition [12] was inactive: 2.01% [at 95 µM].
For `ClP(Cl)c1ccccc1`, the fluorescence, % of fluorescent control [1] was inactive: -0.0847%, the fluorescence, % of Rose Bengal [2] was inactive: -0.166% and the fluorescence, % of fluorescent control [3] was inactive: -0.0113%. The fluorescence, % of fluorescein control [4] was inactive: 0.0186%, the fluorescence, % of fluorescent control [5] was inactive: -0.0559% and the activation [6] was inactive: 1.18%. The activity change, negative = inhibition [7] was inactive: -0.498%, the Potency [14] was “inactive” and the Potency [15] was “inactive”. The activation [8] was inactive: 2.84%, the Potency [16] was “inactive” and the Potency [9] was “inactive”. For the same compound, the Potency [10] was “inactive”, the Potency [11] was “inactive” and the activity change, negative = inhibition [12] was inactive: -6.61%. The Potency [13] was “inactive”.
